Reference: PMC2883962, “Prostate apoptosis response protein 4 sensitizes human colon cancer cells to chemotherapeutic 5-FU through mediation of an NFκB and microRNA network” (Molecular Cancer, 2010)

Target: T1, prostate apoptosis response protein 4 (Par-4), endogenous in native colon cancer cells (human (endogenous in HT29 and SW480), UniProt Q96IZ0 1-340)
T1 construct: prostate apoptosis response protein 4 (Par-4), endogenous in the human colon cancer cell lines HT29 and SW480; Immunoprecipitated with a Par-4 antibody (Santa Cruz); source: endogenous, lysates of native HT29 and SW480 cells
T1 sequence (looked up): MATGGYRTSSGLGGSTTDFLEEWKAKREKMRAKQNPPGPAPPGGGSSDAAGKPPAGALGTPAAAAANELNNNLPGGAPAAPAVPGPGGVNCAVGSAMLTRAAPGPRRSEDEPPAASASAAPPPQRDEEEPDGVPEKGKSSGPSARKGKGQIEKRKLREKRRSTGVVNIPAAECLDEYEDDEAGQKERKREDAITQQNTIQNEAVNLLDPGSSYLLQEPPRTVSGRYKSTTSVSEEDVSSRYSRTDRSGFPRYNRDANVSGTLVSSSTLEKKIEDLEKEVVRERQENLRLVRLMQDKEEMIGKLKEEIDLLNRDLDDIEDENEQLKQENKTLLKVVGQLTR
Assay: co-IP; Par-4 immunoprecipitated from lysates of native HT29 cells treated for 24 h with vehicle or 12.5 or 25 μM ISC-4 (AKT inhibitor); immunoprecipitates immunoblotted with PKA, NFκB p50 and 14-3-3 antibodies
Details: partners not purified

fold increase of Par-4 binding with ISC-4 against vehicle: 4 fold
B1: NFκB (subunits p65 and p50) (complex, human (endogenous in HT29 and SW480))
chain 1: MDELFPLIFPAEPAQASGPYVEIIEQPKQRGMRFRYKCEGRSAGSIPGERSTDTTKTHPTIKINGYTGPGTVRISLVTKDPPHRPHPHELVGKDCRDGFYEAELCPDRCIHSFQNLGIQCVKKRDLEQAISQRIQTNNNPFQVPIEEQRGDYDLNAVRLCFQVTVRDPSGRPLRLPPVLSHPIFDNRAPNTAELKICRVNRNSGSCLGGDEIFLLCDKVQKEDIEVYFTGPGWEARGSFSQADVHRQVAIVFRTPPYADPSLQAPVRVSMQLRRPSDRELSEPMEFQYLPDTDDRHRIEEKRKRTYETFKSIMKKSPFSGPTDPRPPPRRIAVPSRSSASVPKPAPQPYPFTSSLSTINYDEFPTMVFPSGQISQASALAPAPPQVLPQAPAPAPAPAMVSALAQAPAPVPVLAPGPPQAVAPPAPKPTQAGEGTLSEALLQLQFDDEDLGALLGNSTDPAVFTDLASVDNSEFQQLLNQGIPVAPHTTEPMLMEYPEAITRLVTGAQRPPDPAPAPLGAPGLPNGLLSGDEDFSSIADMDFSALLSQISS
chain 2: MAEDDPYLGRPEQMFHLDPSLTHTIFNPEVFQPQMALPTDGPYLQILEQPKQRGFRFRYVCEGPSHGGLPGASSEKNKKSYPQVKICNYVGPAKVIVQLVTNGKNIHLHAHSLVGKHCEDGICTVTAGPKDMVVGFANLGILHVTKKKVFETLEARMTEACIRGYNPGLLVHPDLAYLQAEGGGDRQLGDREKELIRQAALQQTKEMDLSVVRLMFTAFLPDSTGSFTRRLEPVVSDAIYDSKAPNASNLKIVRMDRTAGCVTGGEEIYLLCDKVQKDDIQIRFYEEEENGGVWEGFGDFSPTDVHRQFAIVFKTPKYKDINITKPASVFVQLRRKSDLETSEPKPFLYYPEIKDKEEVQRKRQKLMPNFSDSFGGGSGAGAGGGGMFGSGGGGGGTGSTGPGYSFPHYGFPTYGGITFHPGTTKSNAGMKHG
notes: NFκB p65 subunit, endogenous in human colon cancer cells; NFκB p50 subunit, the processed product of the p105 precursor, endogenous in human colon cancer cells; also called NFκB p65; NFκB p50; source: endogenous, lysates of HT29 and SW480 cells; nuclear and cytoplasmic fractions of HT29 transfectants
